The values below are quoted from earlier work in article PMC9094701, “Multiple-Allele MHC Class II Epitope Engineering by a Molecular Dynamics-Based Evolution Protocol” (Frontiers in Immunology, 2022).

This data set addresses DRB1*01:01 (Homo sapiens, UniProt P01903+P01911, A100R/D57E/F55L/F60I/F76Y/I96L/L162R/M171V/P40L/Q125E/R42F/V115G/Y59C). The conditions noted are these: cited from earlier work.

As usually defined, the IC50 is the concentration needed to halve the response being measured. On to “YPKYVKQNTLKLAT [Influenza A virus peptide from the Hemagglutinin antigen, reference compound]”, for which the IC50 is 130 nM.
